Results published in patent US10167283B2, “β-lactamase inhibitors and uses thereof” (priority 2015, dated 2019).

By UniProt entry, the sequences of proteins in these tests, tags left out. Residues count along the entry.
UniProt Q9F663, 25-293, looked up, species assumed: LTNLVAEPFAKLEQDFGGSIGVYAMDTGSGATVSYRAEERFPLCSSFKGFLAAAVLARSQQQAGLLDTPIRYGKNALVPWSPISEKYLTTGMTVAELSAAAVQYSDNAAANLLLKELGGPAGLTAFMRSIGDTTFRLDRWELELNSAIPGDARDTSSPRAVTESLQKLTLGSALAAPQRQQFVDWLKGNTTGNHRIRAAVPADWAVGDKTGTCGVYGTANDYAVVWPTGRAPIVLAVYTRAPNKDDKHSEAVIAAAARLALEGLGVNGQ

Target: T1, KPC-2 (Klebsiella pneumoniae, UniProt Q9F663)
T1 construct: purchased
Assay: β-lactamase inhibition, Nitrocefin hydrolysis
Type: biochemical
Protocol: Nitrocefin, a kind of cephalosporin antibiotics, is sensitive to most of β-lactamases, and changes in color after being hydrolyzed. The hydrolysis rate of Nitrocefin was measured by real-time recording corresponding absorbance of reaction system. β-Lactamase inhibitors could inhibit hydrolysis of the enzymes to Nitrocefin, and reduce hydrolysis rate. By measuring reaction rates in the same reaction system under different inhibitor concentrations, the IC50 (half maximal inhibitory concentration) values of inhibitors were calculated.
Nitrocefin was dissolved in DMSO to form a solution with concentration of 2 mM, which was sub-packaged and stored at −20° C. The concentration of purchased β-lactamases mother liquor was 1 mg/mL, and the mother liquor was dissolved in 50% glycerol. A part of mother liquor was taken and diluted by 1000 times in reaction solution, sub-packaged and stored at ˜20° C.
The compounds to be tested were dissolved in DMSO to form a mother liquor with concentration of 10 mM. If not used that day, the mother liquor was stored at −20° C. Its test final concentrations were: 100 μM, 25 μM, 6.25 μM, 1.563 μM, 390.6 nM, 97.66 nM, 24.41 nM, 6.10 nM, 1.53 nM, 0.381 nM, 0.095 nM.

`O=C(NC1CCNCC1)[C@@H]1CC[C@@H]2CN1C(=O)N2OS(=O)(=O)O` [MK-7655, reference compound] gave an IC50 of 120 nM.
